Consider 2 molecules from article PMC8113490, “Androgen signaling uses a writer and a reader of ADP-ribosylation to regulate protein complex assembly” (Nature Communications, 2021).

The target in test [1] is Flag-AR 4CG (C125, 290, 327, 406G) (human) (UniProt P10275). Nature of the test: co-IP; AR IP from PC3M/HA-Parp7 cells stably expressing Flag-tagged WT AR or Cys-to-Gly mutants, treated +R1881; probed for AR, ADP-ribosylation, Dtx3L and Parp9.
In a further test the target is T1, Af1521 (Archaeoglobus fulgidus, UniProt O28751).
T1 construct: gene AF_1521

Turning to “Dtx3L (from UniProt Q8TDB6 1-740) (enzyme)”, the complex formation, percent of WT in test [1] was 50 % of WT.

As to `Nc1ncnc2c1ncn2[C@@H]1O[C@H](COP(=O)(O)OP(=O)(O)OC[C@H]2OC(O)[C@H](O)[C@@H]2O)[C@@H](O)[C@H]1O` (some centres unmarked) [ADP-ribose], the “competition of ADP-ribosylated AR pull-down on GST-Af1521 beads” value on Af1521 is “also bound to GST-Af1521 beads, was dependent on R1881 pretreatment of the cells, and was competitively inhibited by ADP-ribose”.
